According to ChEMBL document CHEMBL4130452, “Design of Selective Benzoxazepin PI3Kδ Inhibitors Through Control of Dihedral Angles” (ACS Med Chem Lett, 2017):

Key:
[1] = molecular target: T1, Phosphatidylinositol 4,5-bisphosphate 3-kinase catalytic subunit delta isoform (Homo sapiens, UniProt O00329); test: Binding affinity to PI3Kdelta (unknown origin); details: read-out: Ki(app)
T1 sequence (O00329 whole entry): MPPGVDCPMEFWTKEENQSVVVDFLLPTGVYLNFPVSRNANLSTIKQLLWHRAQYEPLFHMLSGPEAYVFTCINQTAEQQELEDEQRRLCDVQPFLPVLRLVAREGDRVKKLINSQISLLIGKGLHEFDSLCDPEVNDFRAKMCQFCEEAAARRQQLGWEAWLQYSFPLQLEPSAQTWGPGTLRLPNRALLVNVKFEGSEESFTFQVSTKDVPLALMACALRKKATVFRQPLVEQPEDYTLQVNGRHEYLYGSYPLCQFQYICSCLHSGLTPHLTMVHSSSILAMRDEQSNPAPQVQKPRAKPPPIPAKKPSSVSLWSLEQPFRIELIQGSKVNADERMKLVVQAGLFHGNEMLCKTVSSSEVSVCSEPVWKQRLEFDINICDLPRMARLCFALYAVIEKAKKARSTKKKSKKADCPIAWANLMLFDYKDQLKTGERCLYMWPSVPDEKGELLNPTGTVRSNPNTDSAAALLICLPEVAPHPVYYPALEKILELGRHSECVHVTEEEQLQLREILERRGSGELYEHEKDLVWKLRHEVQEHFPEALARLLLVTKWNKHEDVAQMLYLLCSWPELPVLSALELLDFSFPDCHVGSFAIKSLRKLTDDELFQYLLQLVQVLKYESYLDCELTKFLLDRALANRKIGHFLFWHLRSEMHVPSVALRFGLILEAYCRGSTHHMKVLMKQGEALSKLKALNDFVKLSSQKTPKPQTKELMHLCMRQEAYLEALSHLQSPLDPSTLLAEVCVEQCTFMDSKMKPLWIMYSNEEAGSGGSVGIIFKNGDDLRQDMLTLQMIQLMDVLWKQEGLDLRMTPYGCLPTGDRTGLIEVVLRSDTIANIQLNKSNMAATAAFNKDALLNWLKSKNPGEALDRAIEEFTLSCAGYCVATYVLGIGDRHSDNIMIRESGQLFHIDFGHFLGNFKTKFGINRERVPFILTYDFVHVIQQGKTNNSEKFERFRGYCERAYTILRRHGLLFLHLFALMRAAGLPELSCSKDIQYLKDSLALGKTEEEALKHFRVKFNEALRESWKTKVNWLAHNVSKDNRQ

[2] = molecular target: T1, Phosphatidylinositol 4,5-bisphosphate 3-kinase catalytic subunit delta isoform; test: Inhibition of PI3Kdelta in human whole blood assessed as suppression of CD69 expression

**Q.** How did the Ki [1] turn out when `Cc1nc(-c2cn3c(n2)-c2cc([C@@H](C)N4CCN(C(C)(C)C)CC4)c(C)cc2OCC3)n(C(C)C)n1` was run?
**A.** 0.48 nM

**Q.** What about the IC50 [2] of the same compound?
**A.** 4.9 nM
